Measurements from US20230159891A1, “T CELL PROGENITOR PRODUCTION METHOD” (Kyoto University, priority 2020, published 2023).

Test system: Hemogenic endothelial cells (HECs) derived from iPS cells
Assay: Importance of SR1 and IL-3 in production of T cell progenitor (Example 3)
Format: cell-based, human
Settings: 12 days culture; control: 1 nM SR1, 10 ng/ml IL-3 plus SCF, Flt3L, TPO, IL-7, IL-6; FIG. 3
Method: Hemogenic endothelial cells (HECs) derived from iPS cells prepared in the same manner as in Example 1 were sorted by BD FACSAria® Fusion and re-suspended in a StemSpan SFEM II medium, followed by seeding the cells into a culture vessel (6-well plate) coated with RN and DLL4-Fc (225,000/6 wells). The added factors were the following: 300 ng/ml recombinant human (rh) stem cell factor (R&D systems), 300 ng/ml rh FMS-like tyrosine kinase 3 ligand (PeproTech), 100 ng/ml rh thrombopoietin (PeproTech), 100 ng/ml rh interleukin 7 (PeproTech), 100 ng/ml rh interleukin 6 (PeproTech), 10 ng/ml rh interleukin 3 (PeproTech), and 1 nM StemRegenin 1 (SR1, Calbiochem). Three conditions were set: all of these factors were added (control condition), interleukin 3 was excluded from the control condition (-IL-3 condition), and SR1 was excluded from the control condition (-SR1 condition); culture was then performed for 12 days. Halfway through the culture, on day 4 after the start of culture, 500 μl of the medium described above was added. On day 7 after the start of culture, a half amount of the medium was replaced. On day 12 after the start of culture, cells were collected with pipetting, and the cell number was measured. The cells were stained with the antibodies shown in Table 2 and measured with BD FACSAria™ Fusion.

B1: IL-3: recombinant human interleukin 3 (PeproTech) (protein, UniProt P08700 20-152, looked up)
Interleukin-3: APMTQTTPLKTSWVNCSNMIDEIITHLKQPPLPLLDFNNLNGEDQDILMENNLRRPNLEAFNRAVKSLQNASAIESILKNLLPCLPLATAAPTRHPIHIKDGDWNEFRRKLTFYLKTLENAQAQQTTLSLAIF
With B1 the “cell proliferation (cell number) when the factor is excluded from the additives” value was “reduced”.
